Earlier results as cited in patent US8835599B2, “Segmented degradable polymers and conjugates made therefrom” (Nektar Therapeutics, priority 2006, dated 2014).

Settings: in vivo; pegylated (40 kDa) interferon alpha-2a

Substance: PEGASYS: PEG interferon marketed under the PEGASYS brand; pegylated (40 kDa) interferon alpha-2a
- PEG associated with the conjugate cleared by cleavage of a urethane bond: up to 30%
